Literature values as cited in patent US12409112B2, “Pressurized nanoemulsion” (Biofrontera Bioscience GmbH, priority 2023, dated 2025).

Details: cited from earlier work

betamethasone propionate [BMP]
octanol-water partition coefficient (log P): 1.14
